{
  "source": "paper PMC7285913",
  "about": "“In vitro hepatic biotransformation of the algal toxin pectenotoxin-2” (Toxicon: X, 2020)",
  "origin": "cited, not measured here",
  "conditions": "compared with PTXs given TEF of 1; ref Alexander et al., 2009; cited from earlier work",
  "data": [
    {"substance": "7-epi-pectenotoxin-2 seco acid [7-epi-PTX-2 SA]", "values": [
      {"measurement": "relative toxicity", "value": "much less toxic"}
    ]}
  ]
}
